The record followed here is US20250136592A1, “C-LINKED INHIBITORS OF ENL/AF9 YEATS” (Bridge Medicines, priority 2021, published 2025).

Amino acid sequences for entries named in this document (tags omitted). Residues count along the entry.
UniProt Q03111, 1-138 limits assumed: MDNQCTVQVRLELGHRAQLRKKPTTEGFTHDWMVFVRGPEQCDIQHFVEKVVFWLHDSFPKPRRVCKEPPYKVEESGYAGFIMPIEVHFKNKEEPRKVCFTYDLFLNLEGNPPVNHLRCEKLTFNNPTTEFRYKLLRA

One test deals with ENL YEATS domain (Homo sapiens (Human), UniProt Q03111). Description: TR-FRET ENL Screening Assay. The note with it: read-out: TR FRET ENL IC50; 6xHIS ENL YEATS domain binding to H3K9cr peptide.
Test [1] concerns MV4:11 (MLL-AF4 MLL) cells. Description: Cell viability assay (CellTiter-Glo), 12 days. It is filed as cell-based. The note with it: read-out: CTG_MV4, 11 12 DAY_EC50, MV4;11 cells, 12 day. In general terms: ATP-based viability assays read luminescence as a measure of living cells.

For the compound `CN1CCC[C@@H]1c1nc2ccc(NC(=O)c3ccc4c(cnn4C4CC4)c3)cc2[nH]1`, the half-inhibitory concentration (IC50) on ENL YEATS domain was determined as 0.146 µM. Further, the EC50 in test [1] turned out to be 0.031 µM.

In the case of `CN1CCC[C@@H]1c1nc2cc(NC(=O)c3ccc4c(cnn4-c4ccnnc4)c3)ccc2[nH]1`, on ENL YEATS domain, the half-inhibitory concentration (IC50) stood at 0.217 µM.

`Cc1nn(-c2ccncc2)c2ccc(C(=O)Nc3ccc4[nH]c([C@H]5CCCN5C)nc4c3)cc12`: the EC50 in test [1] came out at 0.337 µM.

For `Cc1nn(C)c2cc(C(=O)Nc3cc4[nH]c([C@H]5CCCCN5C)cc4cn3)ccc12`, the half-maximal inhibitory concentration (IC50) on ENL YEATS domain was found to be 0.041 µM. For the same compound, the EC50 in test [1] was found to be 0.18 µM.

The IC50 is the concentration that gives 50% inhibition.
